Data: ChEMBL document CHEMBL4390674, “Defining Structure-Functional Selectivity Relationships (SFSR) for a Class of Non-Catechol Dopamine D1 Receptor Agonists” (J Med Chem, 2019)

Chains of the proteins cited; added tags and fusions are not shown.
UniProt P21728, whole entry: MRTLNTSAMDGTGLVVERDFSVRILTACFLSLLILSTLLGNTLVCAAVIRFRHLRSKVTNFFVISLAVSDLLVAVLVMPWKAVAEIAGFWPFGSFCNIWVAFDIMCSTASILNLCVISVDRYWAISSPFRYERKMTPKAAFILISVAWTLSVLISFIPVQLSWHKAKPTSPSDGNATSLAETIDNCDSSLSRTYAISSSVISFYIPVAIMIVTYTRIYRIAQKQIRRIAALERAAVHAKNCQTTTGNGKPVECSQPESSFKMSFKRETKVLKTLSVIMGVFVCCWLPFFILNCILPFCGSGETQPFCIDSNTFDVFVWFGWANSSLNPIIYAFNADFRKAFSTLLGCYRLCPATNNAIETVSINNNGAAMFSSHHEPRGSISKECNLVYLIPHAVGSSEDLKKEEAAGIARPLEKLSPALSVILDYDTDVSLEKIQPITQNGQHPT

What was measured:
D(1A) dopamine receptor [1] = biological target: T1, D(1A) dopamine receptor (Homo sapiens, UniProt P21728); test: Agonist activity at recombinant human D1 receptor expressed in HEK29T cells assessed as induction of stimulatory G-protein-mediated cAMP accumulation measured after 15 mins by Glosensor-based FLIPR assay; format: functional, cell-based
Procedure, shortened: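 GloSensor-22F cAMP biosensor in HEK293T cells co-expressing human D1, seeded in DMEM + 1% dialyzed FBS; next day GloSensor reagent equilibrated ≥15 min at room temperature in HBSS/20 mM HEPES pH 7.4, then drug added in HBSS/HEPES/0.1% BSA/0.01% ascorbic acid. Luminescence read after 15 min; normalized to dopamine maximum (100%); sigmoidal fit; maximum tested 10⁻⁴ M; ≥3 experiments in triplicate.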

D(1A) dopamine receptor [2] = biological target: T1, D(1A) dopamine receptor; test: Agonist activity at recombinant C-terminal RLuc8-fused human D1 receptor expressed in HEK29T cells co-expressing N-terminal Venus-tagged beta-arrestin2 assessed as increase in beta-arrestin2 recruitment measured after 15 mins in presence of coelenterazine H by BRET assay; format: cell-based

pEC50 (D(1A) dopamine receptor [1]): 9.06 | pEC50 (D(1A) dopamine receptor [2]): 6.16
SMILES: Cc1cc(Oc2nccn3cccc23)ccc1-c1c(C)ncc2nccn12

pEC50: −log10 of the molar value.
